# Source: patent US6451785B1, “Beta lactams as antiproliferative agents” (SmithKline Beecham Corporation, priority 1997, dated 2002)
# Test system: CoA-IT
# Assay: CoA-IT activity assay in U937 cell microsomes
# Format: biochemical
# Details: at concentrations up to 500 μM
# Source text: The following is a method to measure CoA-IT activity and the effects of compounds on CoA-IT activity. The assay is based upon mixing cellular material containing CoA-IT activity with a stable lyso phospholipid such as […] and measuring the production of phospholipid product such as […] occurring in the absence of added CoA or CoA-fatty acids.
# Any inflammatory cell that contains high levels of CoA-IT activity can be used, such as neutrophils, macrophages or cell lines such as U937 cells. U937 cells were obtained from American Type Culture Collection and grown in RPMI-1640 media (Gibco, Grand Island, N.Y.) supplemented with 10% fetal bovine serum (Hyclone, Logan, UT) at 37° C., 5% CO2. Cells were grown without differentiation (basal state) by any agent, such as dimethyl sulfoxide. […]
# CoA-II activity was measured in 1.5 ml centrifuge tubes in a total volume of 100 ul. […] An aliquot of the chloroform-extracted materials were separated, usually by TLC in chloroform/methanol/acetic acid/water (50:25:8:4, v/v), visualized by radioscanning (Bioscan) and the product, [3H]1-alkyl-2-acyl-GPC, was scraped and quantified by liquid scintillation spectroscopy. […]
# Protein concentration were assessed using the protein assay reagents from Bio Rad (Richmond, Calif.).
structure (smiles),measurement,value
O=C(O)Cc1ccccc1Nc1c(Cl)cccc1Cl [Sodium diclofenac],effect on CoA-IT activity,no effect
